By UniProt entry, the sequences of proteins in these tests, tags left out.
UniProt P35462, whole entry: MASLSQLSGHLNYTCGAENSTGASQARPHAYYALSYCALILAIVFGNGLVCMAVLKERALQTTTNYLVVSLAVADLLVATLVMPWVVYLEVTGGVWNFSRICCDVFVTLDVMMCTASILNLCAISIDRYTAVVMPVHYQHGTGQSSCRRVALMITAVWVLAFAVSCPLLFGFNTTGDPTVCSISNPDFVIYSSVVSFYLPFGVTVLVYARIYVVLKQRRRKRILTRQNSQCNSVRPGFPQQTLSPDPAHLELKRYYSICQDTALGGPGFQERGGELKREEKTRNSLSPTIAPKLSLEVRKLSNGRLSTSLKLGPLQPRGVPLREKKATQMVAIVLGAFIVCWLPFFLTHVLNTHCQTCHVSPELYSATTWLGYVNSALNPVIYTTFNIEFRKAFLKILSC

In ChEMBL document CHEMBL2385020, “Evaluation of N-phenyl homopiperazine analogs as potential dopamine D3 receptor selective ligands” (Bioorg Med Chem, 2013):

Molecular target: D(3) dopamine receptor (Homo sapiens, UniProt P35462)
Assay: Intrinsic activity at human dopamine D3 receptor expressed in HEK293 cells assessed as inhibition of forskolin-induced adenylyl cyclase activity relative to quinpirole
Assay type: functional, cell-based
Method in brief: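 Whole-cell forskolin-dependent adenylyl cyclase assay in stably transfected HEK 293 cells, read as percent inhibition. […] Normalized to the full agonist quinpirole, used at 1 μM for D2. Mean ± SEM, n = 3.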

SMILES | Intrinsic activity [%]
COc1ccccc1N1CCCN(CCCCNC(=O)c2ccc(Cl)nc2)CC1 | 74.5
COc1ccccc1N1CCCN(CCCCNC(=O)c2cc3ccccc3[nH]2)CC1 | 59.5
COc1ccccc1N1CCCN(CCCCNC(=O)c2ccc(SC)cc2)CC1 | 67.9
